Literature values, collected in article PMC12389006, “In Vitro and In Vivo Evaluation of Alectinib-Loaded Dendrimer Nanoparticles as a Drug Delivery System for Non-Small Cell Lung Carcinoma” (Pharmaceutics, 2025).

Tested on: ALK-positive NSCLC
Settings: first-line treatment; cited from earlier work

Row | SMILES | disease progression or mortality, share of treated patients
1 | CCc1cc2c(cc1N1CCC(N3CCOCC3)CC1)C(C)(C)c1[nH]c3cc(C#N)ccc3c1C2=O.Cl [Alectinib, 9-ethyl-6,6-dimethyl-8-[4-(morpholine-4-yl)piperidin-1-yl]-11-oxo-6,11-dihydro-5H-benzo[b]carbazole-3-carbonitrile hydrochloride] | 41%
2 | C[C@@H](Oc1cc(-c2cnn(C3CCNCC3)c2)cnc1N)c1c(Cl)ccc(F)c1Cl [Crizotinib] | 68%
